Experimental data as given in ChEMBL document CHEMBL4392822, “HSP60/10 chaperonin systems are inhibited by a variety of approved drugs, natural products, and known bioactive molecules” (Bioorg Med Chem Lett, 2019).

Biological target: T1, Thiosulfate sulfurtransferase (Homo sapiens, UniProt Q16762)
T1 sequence (Q16762 whole entry): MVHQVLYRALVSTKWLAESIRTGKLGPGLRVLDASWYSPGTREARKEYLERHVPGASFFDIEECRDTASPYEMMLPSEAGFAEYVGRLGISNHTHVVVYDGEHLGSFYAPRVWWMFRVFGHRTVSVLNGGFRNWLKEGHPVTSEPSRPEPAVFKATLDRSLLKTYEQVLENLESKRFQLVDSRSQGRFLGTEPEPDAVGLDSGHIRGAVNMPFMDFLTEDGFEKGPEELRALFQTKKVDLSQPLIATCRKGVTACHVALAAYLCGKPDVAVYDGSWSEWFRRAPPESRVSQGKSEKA
Format: ADME
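Also: native rhodanese of unspecified species, enzyme activity read after 45 min by spectrophotometric detection of Fe(SCN)3 colour, IC50 reflects activity reduction.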

C=C1CC[C@H](O)C/C1=C/C=C1\CCC[C@]2(C)[C@@H]([C@H](C)/C=C/[C@H](C)C(C)C)CC[C@@H]12 [ERGOCALCIFEROL] showed an IC50 of 94 µM.
